In this data set the test system is prostate tissue of elderly dogs with proven prostatic hyperplasia. The experiment in a line: Histology (H&E) of the prostate 4 days after local injection into prostate tissue. Conditions: 4 days after 1 ml of 5 mCi injected locally into the prostate; one dog, FIG. 16.

Regarding “99mTc complexed with hexamethyl-propyleneamine oxime”, the “state of the prostatic glands (H&E section)” value is on record as “almost completely destroyed” and the “state of the prostatic stroma (H&E section)” value is reported as “infiltrated with inflammatory cells”.

(Values after US7837670B2, “Methods and devices for delivering therapeutic agents into the prostate gland” (Boston Scientific Scimed, Inc., priority 2005, dated 2010).)
